Test results reported in ChEMBL document CHEMBL4028844, “Targeting the Receptor for Advanced Glycation Endproducts (RAGE): A Medicinal Chemistry Perspective” (J Med Chem, 2017).

Protein sequences, listed by entry. Tags and fused reporters are not part of them. Lines headed by an entry give the natural chain unless they say otherwise; changes in a name come on top.
UniProt Q15109: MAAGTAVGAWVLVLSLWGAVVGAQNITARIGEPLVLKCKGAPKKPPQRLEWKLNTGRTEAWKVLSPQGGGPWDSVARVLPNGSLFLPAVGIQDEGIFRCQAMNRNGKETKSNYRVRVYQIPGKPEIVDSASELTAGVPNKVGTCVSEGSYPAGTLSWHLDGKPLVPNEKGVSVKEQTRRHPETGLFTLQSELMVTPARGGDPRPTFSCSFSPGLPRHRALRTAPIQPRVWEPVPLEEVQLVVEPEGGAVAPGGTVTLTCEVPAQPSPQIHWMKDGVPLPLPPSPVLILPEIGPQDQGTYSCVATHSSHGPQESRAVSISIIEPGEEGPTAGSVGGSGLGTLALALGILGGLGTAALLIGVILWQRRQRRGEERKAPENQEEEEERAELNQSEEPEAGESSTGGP

Columns and labels:
[1] = biological target: T1, Advanced glycosylation end product-specific receptor (Homo sapiens, UniProt Q15109); experiment: Binding affinity to human RAGE cytoplasmic domain by tryptophan fluorescence assay
[2] = biological target: T1, Advanced glycosylation end product-specific receptor; experiment: Inhibition of […] binding to RAGE (unknown origin) by ELISA
[3] = biological target: T1, Advanced glycosylation end product-specific receptor; experiment: Inhibition of amyloid beta binding to RAGE (unknown origin) by ELISA
[4] = biological target: T1, Advanced glycosylation end product-specific receptor; experiment: Inhibition of CML binding to RAGE (unknown origin) by ELISA

pKd [1] | pIC50 [2] | pIC50 [3] | pIC50 [4] | SMILES
8.52 |  |  |  | CC1=NN(c2nc3ccccc3[nH]2)C(=O)C1CCC(C)C (stereo not given)
9.52 |  |  |  | COc1cc(NC(C)=O)c(Cl)cc1C(=O)Nc1nccs1
 | 5.76 | 5.47 | 5.64 | CCCCOc1cc(C(=O)OCCN(CC)CC)ccc1NC(=O)[C@H](N)Cc1ccc2ccccc2c1

pIC50, pKd: −log10 of the molar value.
